The experiment has as its target KLK7.

The record followed here is patent publication US20220267379A1, “NOVEL INHIBITORS OF […] AND USES THEREOF” (Ecole Polytechnique Federale de Lausanne (EPFL), priority 2019, published 2022).

P C L Y L A R C [compound 114] yielded a Ki of 0.029 ± 0.004 µM.
